Tested on: mice
Type: in vivo
Conditions: oral administration

CC1(C)Oc2ccc(C#N)cc2[C@@H](N2CCCC2=O)[C@@H]1O (relative stereo) [Product A, trans-6-cyano-4-(2-oxopyrrolidin-1-yl)-2,2-dimethyl-chroman-3-ol, reference compound]
LD0: 500 mg/kg

— patent US5391751A, “2,2-dimethylchromene derivatives, process for their preparation and pharmaceutical compositions in which they are present” (priority 1987, dated 1995)
